Results as given in ChEMBL document CHEMBL5104233, “Advanced approaches of developing targeted covalent drugs” (RSC Med Chem, 2022).

The chains behind the UniProt entries cited, without tags or fusion partners. Residues count along the entry.
UniProt P00533, 25-1210 T790M/L858R limits assumed: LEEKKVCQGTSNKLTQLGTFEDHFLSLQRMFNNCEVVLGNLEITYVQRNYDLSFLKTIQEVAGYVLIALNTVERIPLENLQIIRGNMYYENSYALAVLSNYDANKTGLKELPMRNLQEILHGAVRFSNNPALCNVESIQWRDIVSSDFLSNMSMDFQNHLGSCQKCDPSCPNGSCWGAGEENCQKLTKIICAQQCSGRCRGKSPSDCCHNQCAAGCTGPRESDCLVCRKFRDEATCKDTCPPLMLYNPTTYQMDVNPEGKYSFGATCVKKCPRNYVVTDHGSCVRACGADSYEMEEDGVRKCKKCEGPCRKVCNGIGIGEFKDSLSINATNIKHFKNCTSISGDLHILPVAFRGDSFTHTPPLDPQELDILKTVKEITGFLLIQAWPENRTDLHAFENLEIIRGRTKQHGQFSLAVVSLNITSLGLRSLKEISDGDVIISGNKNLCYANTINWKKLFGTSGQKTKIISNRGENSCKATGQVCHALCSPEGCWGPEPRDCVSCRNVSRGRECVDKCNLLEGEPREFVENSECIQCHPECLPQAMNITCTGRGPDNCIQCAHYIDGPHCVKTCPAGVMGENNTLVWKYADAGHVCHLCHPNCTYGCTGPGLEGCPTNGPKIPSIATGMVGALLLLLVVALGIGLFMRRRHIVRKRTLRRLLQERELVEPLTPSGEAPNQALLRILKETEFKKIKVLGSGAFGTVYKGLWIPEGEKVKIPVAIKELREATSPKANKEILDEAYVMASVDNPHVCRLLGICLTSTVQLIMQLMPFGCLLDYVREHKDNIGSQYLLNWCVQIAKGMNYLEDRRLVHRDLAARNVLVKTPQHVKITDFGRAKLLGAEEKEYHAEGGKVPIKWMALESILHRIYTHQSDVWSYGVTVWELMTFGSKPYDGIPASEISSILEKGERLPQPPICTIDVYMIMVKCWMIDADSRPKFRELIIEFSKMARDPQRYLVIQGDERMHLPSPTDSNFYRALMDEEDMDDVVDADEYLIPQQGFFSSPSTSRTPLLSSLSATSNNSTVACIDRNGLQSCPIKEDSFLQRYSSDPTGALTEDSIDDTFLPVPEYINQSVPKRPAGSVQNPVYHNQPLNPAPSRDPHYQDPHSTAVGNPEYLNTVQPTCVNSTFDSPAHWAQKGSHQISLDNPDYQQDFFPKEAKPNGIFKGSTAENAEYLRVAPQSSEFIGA

Target: Epidermal growth factor receptor (Homo sapiens, UniProt P00533, L858R/T790M)

IC50: 31 nM
SMILES: Cc1cc(C(=O)Nc2nc3cccc(Cl)c3n2[C@@H]2CCCCN(C(=O)/C=C/CN(C)C)C2)ccn1 [NAZARTINIB]
